Measured values published in PubChem BioAssay AID588397 (National Center for Advancing Translational Sciences (NCATS), 2011).
The entries are a selection whose mix differs from that of the whole data set. Inconclusive results are not listed. Active and inactive are the calls of the source. Calls follow the shape of the dose curve; as a rule, active = well fitted inhibition curve with a large enough effect; inconclusive = small, poorly fitted or top-dose-only effect; inactive = no such curve, though single readings can be large or run the other way.

Assay: qHTS of small molecules that selectively kill Giardia lamblia: Hit Validation.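 Also: viability measured as ATP content by luminescence so killing lowers signal; trophozoites exposed to compounds for 48 h anaerobically at 37 °C; nearly all actives have a fitted effect of over 65% in size.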
Conditions: Giardia lamblia trophozoite viability, dose-response
Excerpt: Giardia lamblia is a human pathogen afflicting impoverished nations, and the most common cause of outbreaks of diarrhea in the United States. Giardia has been classified by the CDC as a category B bioterrorism organism. The favored anti giardiasis drugs in the US are metronidazole or tinidazole, compounds that have undesirable side effects. Moreover, increasing resistance to drug regimes and recurrence are a concern. It is thus clear that alternative drug treatments are needed.
In a collaboration between the University of Maryland, College Park and the NIH Chemical Genomics Center, a bioluminescence Giardia viability assay based on the trophozoites' ATP content was developed. This assay is suitable for high throughput screening, and miniaturized the assay for compound screening in 1536-well plates. The goal of the project is to screen the Molecular Libraries Small Molecule Repository (MLSMR) for compounds that selectively kill Giardia trophozoites.
NIH Chemical Genomics Center [NCGC]
NIH Molecular Libraries Probe Centers Network [MLPCN]
Assay Submitter (PI): Osnat Herzberg, University of Maryland, College Park, MD.
1. Dispense 2 ul/well media
2. Dispense 23 nl/well compounds
3. Dispense 4 ul/well Giardia trophozoites at a concentration of 100 cells/well
4. Incubate 48 hrs at 37 deg C anaerobically
5. Dispense 4 ul/well ATPLite 1-Step Luminescence assay kit
6. Incubate 15-30 min at room temperature
7. Read luminescence signal on ViewLux plate reader
Potency is read from the fitted curve at half-maximal effect.

SMILES	Potency
Nc1cccc([As](=O)(O)c2ccccc2)c1	active: 6.5 µM
O=[As](O)(c1cccs1)c1cccs1	active: 2.05 µM
O=C(Nc1ccncc1[N+](=O)[O-])c1ccc([N+](=O)[O-])cc1[N+](=O)[O-]	active: 1.16 µM
O=[N+]([O-])c1cc([N+](=O)[O-])c(-c2ccn[nH]2)s1	active: 0.516 µM
COc1cc(I)ccc1[As](=O)(O)O	active: 1.3 µM
NC(=O)c1cc([N+](=O)[O-])cc([N+](=O)[O-])c1N	active: 3.65 µM
Nc1ccc([As](=O)(O)c2ccc([N+](=O)[O-])cc2)cc1	active: 2.05 µM
O=[N+]([O-])c1cc([N+](=O)[O-])c2nc[nH]c2c1	active: 1.45 µM
O=c1c2cc([N+](=O)[O-])ccc2[nH]c2c([N+](=O)[O-])cc([N+](=O)[O-])cc12	active: 2.31 µM
